Data on 56 compounds can be found in PubChem BioAssay AID2013 (Sanford-Burnham Center for Chemical Genomics, 2009).

Sequences of proteins named here, by UniProt entry; tags and fusion partners are left off.
UniProt Q9Y2T6, whole entry: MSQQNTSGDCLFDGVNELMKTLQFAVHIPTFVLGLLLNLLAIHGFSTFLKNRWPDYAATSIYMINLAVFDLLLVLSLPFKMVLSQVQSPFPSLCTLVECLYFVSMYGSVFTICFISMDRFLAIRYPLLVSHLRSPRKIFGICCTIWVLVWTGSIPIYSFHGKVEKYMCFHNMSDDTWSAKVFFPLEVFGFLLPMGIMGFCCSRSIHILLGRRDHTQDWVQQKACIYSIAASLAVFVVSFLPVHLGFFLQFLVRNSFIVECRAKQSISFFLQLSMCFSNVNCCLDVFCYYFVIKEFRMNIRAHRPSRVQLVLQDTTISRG

The term inhibition denotes the relative decrease from the control value, in per cent.

The list shows a part of the results, in another mix than the full data. Entries with a potency or affinity are not part of this list. Some salts and complexes are drawn in separate pieces, as the source files them; their charges need not balance. The source made the active and inactive calls.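 Rule for the calls: active = spots per cell inhibited over 60%, with over 100 cells counted and total cytoplasm intensity under 500,000; inconclusive = wells with under 100 cells, flagged as likely toxic; inactive = the rest.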

This test has as its target G-protein coupled receptor 55 (Homo sapiens) (UniProt Q9Y2T6). Put plainly: GPR55 antagonists blocking LPI-driven arrestin recruitment, primary screen, imaging, U2OS, beta-arrestin-GFP, LPI agonist (AID 2013).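 Note: U2OS cells stably carrying GPR55 and arrestin-GFP stimulated by 5 µM LPI near EC80; imaged beta-arrestin-GFP aggregate spots per cell after agonist stimulation; plate controls were LPI-stimulated DMSO wells for no effect and DMSO wells without LPI for full effect.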 As to conditions: U2OS GPR55 beta-arrestin-GFP translocation imaging, LPI antagonism; at 10 µM; active compounds read high. For orientation: Arrestin recruitment assays detect the binding of arrestin to an activated receptor.
As to `O=[N+]([O-])c1ccc(OP2(=O)COCCO2)cc1` (stereo unspecified), the inhibition was inactive: 10.3%. Next, `Cc1cc(-c2cccc3ccccc23)c(C)cn1.O=[N+]([O-])c1cc([N+](=O)[O-])c(O)c([N+](=O)[O-])c1`: inactive: 0%; `O=[N+]([O-])c1cc([N+](=O)[O-])c(NCC2CCS(=O)(=O)C2)c([N+](=O)[O-])c1` (stereo unspecified): inactive: 9.5%. As to `CCOP(C)(=S)SCC(=O)NC(C)(CC)C(=O)O` (stereo unspecified), the inhibition is inactive: 4.1%. With `CP(=O)(Nc1ccc(SC(F)(F)F)cc1)Oc1ccc(F)cc1` (stereo unspecified), the inhibition is inactive: -6.7%. Consider `Cc1ccccc1NP(C)(=O)Nc1ccccc1C`, for which the inhibition is inactive: 3.7%. Next, `CP(=O)(Nc1ccc2c(c1)OCCO2)Oc1ccccc1` (stereo unspecified): inactive: 6.2%. In the case of `CP(=O)(Nc1ccccc1F)Oc1ccccc1` (stereo unspecified), the inhibition was inactive: 5.3%. As to `CC(C)c1ccc(OP(C)(=O)Nc2ccc(SC(F)(F)F)cc2)cc1` (stereo unspecified), the inhibition was inactive: 4.5%. The value for `COc1ccc2c(c1O)-c1c(O)c(OC)cc3c1[C@H](C2)[N+](C)(C)CC3.O=[N+]([O-])c1cc([N+](=O)[O-])c([O-])c([N+](=O)[O-])c1[O-]` was inactive: 19.1%; that for `O=C(OC1CN2CCC1CC2)c1ccc([N+](=O)[O-])cc1` (stereo unspecified) was inactive: 5.2%; that for `O=C(OCCN1CCN(CCOCc2ccccc2)CC1)C(O)(c1ccccc1)c1ccccc1` was inactive: 3.7%. The value for `CCOC(=O)c1ccc(NP(C)(=O)Oc2ccc(F)cc2)cc1` (stereo unspecified) was inactive: -0.7%; that for `COc1ccc(OP(C)(=O)Nc2ccc(SC(F)(F)F)cc2)cc1` (stereo unspecified) was inactive: -6.6%. The value for `CP(=O)(Nc1ccccc1)Oc1ccc(F)cc1` (stereo unspecified) was inactive: 5.6%; that for `O=[N+]([O-])c1cc([N+](=O)[O-])c(OC2CCCCC2O)c([N+](=O)[O-])c1` (stereo unspecified) was inactive: 0.7%. Consider `CCCCCOc1ccc(NP(C)(=O)Oc2ccc(Cl)cc2Cl)cc1` (stereo unspecified), for which the inhibition was inactive: 1.9%. The value for `CCN(CC)CCCOC(=O)C(O)(c1ccccc1)C1CCCCC1` (stereo unspecified) was inactive: 8.5%; that for `O=C(O)c1cccc(Nc2c([N+](=O)[O-])cc([N+](=O)[O-])cc2[N+](=O)[O-])c1` was inactive: 6.5%; that for `CC1=NCCc2c1[nH]c1ccccc21.O=[N+]([O-])c1cc([N+](=O)[O-])c(O)c([N+](=O)[O-])c1` was inactive: 5.1%. The value for `CCOC(=O)c1ccc(NP(C)(=O)Oc2cc(C)cc(C)c2)cc1` (stereo unspecified) was inactive: -16.4%; that for `Cc1cc(C)cc(OP(C)(=O)Nc2ccc(C)cc2C)c1` (stereo unspecified) was inactive: 5.6%. Next, `COc1ccccc1OP(C)(=O)Nc1cccc(Br)c1` (stereo unspecified): inactive: -7.9%. As for `Cc1ccc(C)c(NP(C)(=O)Oc2ccccc2)c1` (stereo unspecified), the inhibition was inactive: 1.6%. Regarding `CP(=O)(Nc1cccc(Br)c1)Oc1ccccc1` (stereo unspecified), the inhibition was inactive: 11.6%. The value for `Cc1cc(C)cc(OP(C)(=O)Nc2ccccn2)c1` (stereo unspecified) was inactive: -0.4%; that for `O=[N+]([O-])c1cc([N+](=O)[O-])c(-n2nnc3ccccc32)c([N+](=O)[O-])c1` was inactive: -0.7%; that for `Cc1nc2ccc3ccccc3c2s1.O=[N+]([O-])c1cc([N+](=O)[O-])c(O)c([N+](=O)[O-])c1` was inactive: -11.1%. Consider `CCOC(=O)C(CC)C1=NC(C)(C)Cc2ccccc21.O=[N+]([O-])c1cc([N+](=O)[O-])c(O)c([N+](=O)[O-])c1` (stereo unspecified), for which the inhibition is inactive: 9.5%. Next, `O=[N+]([O-])c1cc([N+](=O)[O-])c(Nc2nnnn2CCO)c([N+](=O)[O-])c1`: inactive: -3.4%. The value for `CP(=O)(Nc1ccc(SC(F)(F)F)cc1)Oc1ccccc1` (stereo unspecified) was inactive: 1%; that for `CCCOc1ccc(NP(C)(=O)Oc2ccc(Cl)cc2)cc1` (stereo unspecified) was inactive: 1.3%. Consider `CN1CCCCC1COC(=O)C1(O)c2ccccc2CCc2ccccc21` (stereo unspecified), for which the inhibition was inactive: 5.6%.

Turning to `COc1ccccc1OP(C)(=O)Nc1c(C)cccc1C` (stereo unspecified), the inhibition is inactive: 3.9%.

Turning to `CP(=O)(Nc1ccccc1Br)Oc1ccccc1` (stereo unspecified), the inhibition was inactive: -4.2%. As to `COc1ccccc1OP(C)(=O)Nc1ccccc1` (stereo unspecified), the inhibition is inactive: 15.4%.

Regarding `CP(=S)(Nn1cnnc1)Oc1ccccc1` (stereo unspecified), the inhibition is inactive: -1%.

Turning to `Cc1cc(C)cc(OP(C)(=O)Nc2ccc(SC(F)(F)F)cc2)c1` (stereo unspecified), the inhibition was inactive: 2%.

For the compound `CCc1ccc(OP(C)(=O)N2CCN(c3ccc([N+](=O)[O-])cc3)CC2)cc1` (stereo unspecified), the inhibition is inactive: 10.6%. The value for `CP(=O)(NC(=O)Nc1ccccc1)Oc1ccccc1` (stereo unspecified) was inactive: -6.9%; that for `CP(=O)(Oc1ccccc1)OC(c1ccccc1)C(F)(F)F` (stereo unspecified) was inactive: 1.2%; that for `CP(=O)(Nc1ccc(SC(F)(F)F)cc1)Oc1ccc(Cl)cc1` (stereo unspecified) was inactive: 1.8%.

With `Cc1cccc(C)c1OP(C)(=O)Nc1ccc(SC(F)(F)F)cc1` (stereo unspecified), the inhibition was inactive: 11.2%. Next, `CP(=O)(Nc1ccccn1)Oc1ccc(Cl)cc1` (stereo unspecified): inactive: 3.5%. Next, `CCOC(=O)c1ccc(NP(C)(=O)Oc2ccc(OC)cc2)cc1` (stereo unspecified): inactive: 18.3%. The value for `CCOP(C)(=S)SCC(=O)NC(C)C(=O)O` (stereo unspecified) was inactive: -2.3%; that for `CCN(CC)CCCOC(=O)C(O)(c1ccccc1)c1ccccc1` was inactive: -19%. On to `O=[N+]([O-])c1ccc2c(c1)C=Nc1ccccc1O2`, for which the inhibition is inactive: -1%. The value for `Cc1cccc(C)c1OP(C)(N)=O` (stereo unspecified) was inactive: -5.9%; that for `CC(C)(C)c1ccc(OP(C)(=O)Nc2ccc(SC(F)(F)F)cc2)cc1` (stereo unspecified) was inactive: -3.2%; that for `Cc1cc(C)cc(OP(C)(N)=O)c1` (stereo unspecified) was inactive: 8.1%.

On to `COc1ccc(OP(C)(=O)Nc2cccc(F)c2)cc1` (stereo unspecified), for which the inhibition is inactive: -2.1%. Next, `COc1ccccc1OP(C)(=O)Nc1cc(Cl)ccc1C` (stereo unspecified): inactive: 96.8%; `Cc1ccc(NP(C)(=O)Oc2ccccc2)c(C)c1` (stereo unspecified): inactive: 8.6%.

Regarding `COc1ccccc1OP(C)(=O)Nc1ccc(C)cc1` (stereo unspecified), the inhibition was inactive: 6.1%.

Regarding `CCOC(=O)c1ccc(NP(C)(=O)Oc2ccccc2)cc1` (stereo unspecified), the inhibition is inactive: -1.5%.
